# Test results reported in ChEMBL document CHEMBL1131242, “6beta-Acetoxynortropane: a potent muscarinic agonist with apparent selectivity toward M2-receptors” (J Med Chem, 1998).
# Sequences of proteins named here, by UniProt entry; tags and fusion partners are left off. A change or cut given only in a name is not applied to a line headed by its entry.
# UniProt P09483: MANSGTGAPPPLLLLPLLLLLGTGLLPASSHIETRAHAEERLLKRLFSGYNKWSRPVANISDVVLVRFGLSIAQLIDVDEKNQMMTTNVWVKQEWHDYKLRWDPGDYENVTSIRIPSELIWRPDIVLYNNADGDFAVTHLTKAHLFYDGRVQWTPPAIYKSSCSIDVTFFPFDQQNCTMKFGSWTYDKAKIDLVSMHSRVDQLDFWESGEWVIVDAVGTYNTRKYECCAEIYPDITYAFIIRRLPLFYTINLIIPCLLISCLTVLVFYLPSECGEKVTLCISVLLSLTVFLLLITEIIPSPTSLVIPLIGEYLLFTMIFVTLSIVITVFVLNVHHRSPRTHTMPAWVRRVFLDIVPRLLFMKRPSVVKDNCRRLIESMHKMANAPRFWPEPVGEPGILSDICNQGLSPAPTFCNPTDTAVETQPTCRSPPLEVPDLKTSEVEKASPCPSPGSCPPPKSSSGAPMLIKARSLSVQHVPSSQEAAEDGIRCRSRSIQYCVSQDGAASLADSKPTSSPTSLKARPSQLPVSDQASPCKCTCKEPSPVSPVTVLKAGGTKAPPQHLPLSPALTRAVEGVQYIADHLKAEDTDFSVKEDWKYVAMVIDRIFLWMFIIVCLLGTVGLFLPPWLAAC
# UniProt P12390, whole entry: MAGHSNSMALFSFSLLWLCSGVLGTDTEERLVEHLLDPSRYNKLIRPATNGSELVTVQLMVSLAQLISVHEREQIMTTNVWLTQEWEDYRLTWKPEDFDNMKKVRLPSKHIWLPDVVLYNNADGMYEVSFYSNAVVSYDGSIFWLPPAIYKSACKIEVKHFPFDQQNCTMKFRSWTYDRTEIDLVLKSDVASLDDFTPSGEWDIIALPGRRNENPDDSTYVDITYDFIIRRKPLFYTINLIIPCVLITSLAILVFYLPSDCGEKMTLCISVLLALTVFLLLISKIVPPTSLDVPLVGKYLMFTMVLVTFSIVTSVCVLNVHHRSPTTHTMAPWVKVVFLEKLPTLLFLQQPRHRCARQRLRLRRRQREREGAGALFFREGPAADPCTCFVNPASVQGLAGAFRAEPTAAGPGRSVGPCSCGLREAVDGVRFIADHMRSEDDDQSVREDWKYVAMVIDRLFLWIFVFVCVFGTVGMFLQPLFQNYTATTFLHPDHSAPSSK
# Assays:
# [1] = target: T1, Neuronal acetylcholine receptor; alpha4/beta2 (Rattus norvegicus, UniProt P09483+P12390); assay: Inhibition of binding of [3H]nicotine to Nicotinic acetylcholine receptor alpha4-beta2 in rat cerebral cortical membranes at 100 uM concentration; type: cell membranes, Membrane
# How it was run: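 [3H]nicotine (0.2 nM) binding to rat cortical membranes, with 200 µM diisopropyl fluorophosphate, 120 min at 0–4 °C, triplicate. Nonspecific binding with 1 µM nicotine. Percent inhibition at 100 µM test agent; mean ± SEM, n = 4.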
# [2] = target: T1, Neuronal acetylcholine receptor; alpha4/beta2; assay: The compound was evaluated for percentage inhibition of binding of [3H]- nicotine to Nicotinic acetylcholine receptor alpha4-beta2 in Rat Cerebral Cortical Membranes; type: protein-complex assay
# How it was run: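 Rat cerebral cortex membranes with 0.2 nM [3H]nicotine in HEPES binding buffer pH 7.4 containing 200 µM diisopropyl fluorophosphate. Incubation was 120 min at 0–4 °C, in triplicate. Nonspecific binding used 1 µM nicotine. Samples were filtered through polyethylenimine-soaked GF/B filters and counted.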
compound,measurement,setting,value
COC(=O)C1=CCC2CCC1N2C (configuration not stated),Ki,[1],8.9 µM
same,Ki,[2],8.9 µM
